# Laboratory results taken from PubChem BioAssay AID1159607 (Small Molecule Screening Facility, UW Madison, 2016).
# The list shows a part of the results, in another mix than the full data. Active and inactive are the calls of the source. Rule as the data show it: active = FP signal below about 40; inactive = the rest.
# Test system: RMI core complex (RMI1/RMI2) binding to FANCM MM2 peptide, human
# Test: disruptors of RMI1/RMI2 association with MM2 peptide – biochemical, fluorescence polarization, human, primary screen (AID 1159607)
# Conditions: RMI core complex with F-MM2 peptide, at 33 µM, stronger effect = lower value
row,SMILES,FP signal (polarization)
1,Cc1ccccc1NC1CC(C)(C)NC(C)(C)C1,inactive: 55
2,CC(C)N1CCC(N(C(=O)Cc2ccccc2)c2ccc(Cl)cc2)CC1,inactive: 61
